From US10765741B2, “Methods for treating VEGF-expressing cancer using preformed nanoparticle complexes comprising albumin-bound paclitaxel and bevacizumab” (Mayo Foundation for Medical Education and Research, priority 2011, dated 2020)

Experiment: Complex formation of labeled antibodies with labeled Abraxane nanoparticles, flow cytometry
Type: binding
Conditions: fluorescently labeled antibody and nanoparticles
Protocol: Three therapeutic monoclonal antibodies (bevacizumab, trastuzamab, and rituxan) were fluorescently labeled and incubated with fluorescently labeled Abraxane® nanoparticles. The particles were spun down, washed, and visualized by flow cytometry.

## trastuzamab: Therapeutic monoclonal antibody (non-VEGF targeting)
  complex formation with Abraxane nanoparticles: spontaneously formed complexes
